Only a part is listed here, and it is no random draw. Some of these compounds have results that are not shown, active ones among them. Calls of active or inactive are those of the source.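 The calls were made as follows: active = inhibition above the batch mean plus 3 SD and confirmed as a hit by visual image inspection (cut at about 30% in these data, passing the limit was not always enough); inconclusive = above the inhibition threshold but rejected on visual inspection; inactive = the rest.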
assay: disruptors of actin filament network in HUVEC – imaging, phalloidin staining, high-content imaging, primary screen (AID 836); conditions: HUVEC TNFa F-actin phalloidin imaging, at 2 µM, active compounds read high

| Structure (SMILES) | inhibition |
| --- | --- |
| O=C(OC1CN2CCC1CC2)C(CO)(c1ccccc1)c1ccccc1 (stereo not drawn) | inactive: -18.3% |
| CN(C)c1cccc(C(=O)NCC2(N(C)C)CCCCC2)c1 | inactive: 18.9% |
| CC(C)N1C(=O)CC2(CCN(CCOC(=O)C(O)(c3ccccc3)c3ccccc3)CC2)C1=O | inactive: 3.1% |
